Test results: patent US4579861A, “Aryloxypropanolamine derivatives, pharmaceutical compositions and adrenegic thereof” (Pierrel S.p.A., priority 1983, dated 1986)

Sequences of proteins named here, by UniProt entry; tags and fusion partners are left off.
UniProt Q8K4Z4, whole entry: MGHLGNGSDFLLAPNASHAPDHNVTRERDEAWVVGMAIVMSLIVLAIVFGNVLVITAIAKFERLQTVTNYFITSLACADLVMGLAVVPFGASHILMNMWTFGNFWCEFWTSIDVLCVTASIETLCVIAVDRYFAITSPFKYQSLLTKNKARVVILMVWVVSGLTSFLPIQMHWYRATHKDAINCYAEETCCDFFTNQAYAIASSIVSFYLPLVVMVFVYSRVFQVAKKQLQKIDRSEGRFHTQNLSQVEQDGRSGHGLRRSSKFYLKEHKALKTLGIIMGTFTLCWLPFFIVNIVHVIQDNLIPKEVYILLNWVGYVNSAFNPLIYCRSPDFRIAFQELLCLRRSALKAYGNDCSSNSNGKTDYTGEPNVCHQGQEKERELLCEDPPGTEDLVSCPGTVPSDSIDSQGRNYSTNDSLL

Legend:
[1] = target: β2 (guinea pig trachea) (Cavia porcellus, UniProt Q8K4Z4); experiment: cell-based
[2] = in vivo; details: mouse, iv

Compound	IC50 [1] [µM]	LD50 at 168 h [2] [mg/kg]
CC(C)NCC(O)COc1ccc(CC(N)=O)cc1 (centres unmarked) [Atenolol, atenolol, reference compound]	5.7	–
CC(CCc1ccccc1)NCC(O)c1ccc(O)c(C(N)=O)c1 (centres unmarked) [Labetalol, labetalol, reference compound]	–	55
